## Yeast mating assay 2: variants of the scFv Ab-91

Reference: Engelhart et al. 2022, doi:10.1038/s41597-022-01779-4. File: FLAb, binding data.

Antigen: PDVDLGDISGINAS, a 14-residue peptide of the SARS-CoV-2 spike HR2 region.

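Phage display of a naive human antibody library on the peptide gave the parent. AAYL51 was designed without a model: most single CDR substitutions and a random sample of double and triple ones. Affinity was read by AlphaSeq, a pooled yeast mating assay with surface-displayed partners. Pairs that bind mate more often; barcode pairs of the diploids are counted by sequencing. Each replicate has its own calibration line, from reference interactions of the BCL2 family. Mating was done three times.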

The variants keep the light chain, the linker and the frameworks of Ab-91 (scFv order VL, three GGGGS repeats, VH).
VL: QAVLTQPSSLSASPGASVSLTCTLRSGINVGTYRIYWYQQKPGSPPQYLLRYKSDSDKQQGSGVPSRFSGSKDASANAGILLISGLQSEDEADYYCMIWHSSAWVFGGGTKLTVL
VH: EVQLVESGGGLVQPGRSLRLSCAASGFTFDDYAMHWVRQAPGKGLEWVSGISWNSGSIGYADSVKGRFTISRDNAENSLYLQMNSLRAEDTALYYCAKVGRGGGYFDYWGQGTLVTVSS

Changes read parent residue, position, new residue, counted from the first residue of the VH shown. Kd is apparent (estimated from mating counts) and averaged on the log scale over replicates with a signal. Smaller is tighter. A pair that was not seen in any replicate is written "no signal"; this usually means weak binding, but a binder can also be missed. Order: sorted from the lowest average up, undetected variants last. Parent in this assay: reference entry 72 nM, copy in this library 7.5 nM. Background: pairings of library AAYL51 with three empty control strains gave a value in 21% of cases (median 34 µM, 5th percentile 1.8 µM). Values in that range, when seen in few replicates, are hard to tell from nonspecific mating.

| # | changes | Kd (apparent) | seen in |
|---|---|---|---|
| 1 | G56V/I58N/F106G | 4.4 nM | 3/3 |
| 2 | D31Y/G102R/G103M | 1.1 µM | 3/3 |
| 3 | D31W/G59S/D62G | 2.0 µM | 1/3 |
| 4 | D30K/H35S/G103F | 2.4 µM | 2/3 |
| 5 | F29H/W53G/A61F | 3.9 µM | 1/3 |
| 6 | N54W/D62K/V99N | 9.0 µM | 1/3 |
| 7 | S52C/S57M/R101C | 9.8 µM | 1/3 |
| 8 | G26P/S63D/G100E | 12 µM | 1/3 |
| 9 | D30P/Y105G | 13 µM | 2/3 |
| 10 | H35Y/G59N/S63W | 18 µM | 2/3 |
| 11 | D31C/G50H/F106R | 22 µM | 1/3 |
| 12 | S57H/G104D/F106D | 27 µM | 1/3 |
| 13 | T28Y/I51G/G104A | 28 µM | 1/3 |
| 14 | D31I/N54H/Y60A | 29 µM | 1/3 |
| 15 | H35Y/W53M/V64A | 29 µM | 1/3 |
| 16 | G59D/G102D/D107Q | 54 µM | 2/3 |
| 17 | Y32H/Y105T | 63 µM | 2/3 |
| 18 | Y32D/G103R/D107N | 63 µM | 1/3 |
| 19 | T28M/M34W/K65D | 85 µM | 1/3 |
| 20 | D30S/G50R/S57G | 180 µM | 2/3 |
| 21 | G26M/D62P/K65W | 210 µM | 1/3 |
| 22 | H35Q/S55D/S57L | 240 µM | 3/3 |
| 23 | F27H/D30P/G56Y | 340 µM | 3/3 |
| 24 | M34K/V99G | 360 µM | 2/3 |
| 25 | N54K/V64R/F106E | 430 µM | 2/3 |
| 26 | D30I/N54G/A61S | 630 µM | 1/3 |
| 27 | D31R/R101N/D107Y | 1.2 mM | 1/3 |
| 28 | D31K/S63K/G103P | 1.5 mM | 2/3 |
| 29 | M34P/S57Q/F106E | 1.6 mM | 1/3 |
| 30 | S63H/G104P | no signal | 0/3 |
| 31 | S57P/F106Q | no signal | 0/3 |
| 32 | A33M/V64I/R101H | no signal | 0/3 |
| 33 | I51D/W53H/G56S | no signal | 0/3 |
| 34 | G56I/Y105A/Y108Q | no signal | 0/3 |
| 35 | Y60S/A61G/D107L | no signal | 0/3 |
| 36 | F29Y/I51F/F106C | no signal | 0/3 |
| 37 | F27I/S57F | no signal | 0/3 |
| 38 | T28V/G103T | no signal | 0/3 |
| 39 | A61D/G103H/Y108C | no signal | 0/3 |
| 40 | F29D/I58N/Y60W | no signal | 0/3 |
| 41 | D31Y/Y32E/G50A | no signal | 0/3 |
| 42 | G103K/G104D/F106W | no signal | 0/3 |
| 43 | F27Y/G50T/I51W | no signal | 0/3 |
| 44 | G26E/H35F/S52G | no signal | 0/3 |
| 45 | G50D/V99N/R101H | no signal | 0/3 |
| 46 | N54H/Y60Q/Y108T | no signal | 0/3 |
| 47 | S52Y/I58V/Y60F | no signal | 0/3 |
| 48 | D31G/M34D/D62A | no signal | 0/3 |
| 49 | H35S/Y60M/Y108F | no signal | 0/3 |
| 50 | G59P/V99Q/F106W | no signal | 0/3 |

From the list, the first 5 with no signal in any replicate:

changes,Kd (apparent),seen in
S63H/G104P,no signal,0/3
S57P/F106Q,no signal,0/3
A33M/V64I/R101H,no signal,0/3
I51D/W53H/G56S,no signal,0/3
G56I/Y105A/Y108Q,no signal,0/3